Assay results: US6835194B2
Some compounds may have been tested in ways that are not shown here.

Assay: pharmacokinetics of the implant system in healthy volunteers with induced fever (Example 7)

CCC(=O)N(c1ccccc1)C1(COC)CCN(CCc2cccs2)CC1
absorption half-life (absorption from subcutaneous implant 5 micrograms per hour, about 109 mg/ml, healthy volunteers, NONMEM population model): 16.2 h
impact of induced fever on plasma concentration (Cp) of sufentanil (experimental fever of about 2.5° C. induced by aldesleukin on day 9, implant 5 micrograms per hour): not associated with an undesirable systemic increase
